The results in this text go back to PubChem BioAssay AID504634 (The Scripps Research Institute Molecular Screening Center, 2011).

By UniProt entry, the sequences of proteins in these tests, tags left out.
UniProt P47898, whole entry, looked up: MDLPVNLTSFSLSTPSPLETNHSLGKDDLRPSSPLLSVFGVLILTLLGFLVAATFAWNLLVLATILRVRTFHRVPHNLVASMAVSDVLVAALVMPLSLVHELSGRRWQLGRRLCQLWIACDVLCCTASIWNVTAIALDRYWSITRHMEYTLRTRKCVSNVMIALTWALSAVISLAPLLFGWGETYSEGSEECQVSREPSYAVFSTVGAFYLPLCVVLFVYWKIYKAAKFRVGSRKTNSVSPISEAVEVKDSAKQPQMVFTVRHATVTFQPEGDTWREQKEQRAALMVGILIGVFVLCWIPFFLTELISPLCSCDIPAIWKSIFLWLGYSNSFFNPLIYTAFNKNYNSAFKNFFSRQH

Only a part is listed here, and it is no random draw. Calls of active or inactive are those of the source. No stated cut-off is given here; in the data, active means inhibition mostly above about 23% (no sharp cut-off); inactive means mostly below about 18%.

One may read the inhibition as the change of the read-out against control, counted positive when it falls.

The target of this test is 5-hydroxytryptamine receptor 5A (Homo sapiens) (UniProt P47898). Kind of test: HTR5A inverse agonists in luminescence cell assay, primary screen, counter-screen for OPRM1-OPRD1 heterodimer inverse agonist project, full-deck HTS (AID 504634).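 Further: 0% = cells with DMSO and 100% = no-cell wells with DMSO.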 To be noted: HTR5A cell line, inverse agonism, at 9.3 µM, hits give high values. For orientation: A counterscreen serves to expose hits that act by an unwanted route or on another target.
Regarding `COc1ccc(-c2nn(-c3ccccc3)cc2C(=O)N2c3ccc(C)cc3C3CN(C)CCC32)cc1` (stereo unspecified), the inhibition is inactive: 23.8%.
Next, `Cn1c(=O)c2c(nc(CN3CCN(C(c4ccccc4)c4ccccc4)CC3)n2CC(N)=O)n(C)c1=O`: inactive: 9.02%; `CC(=O)NC(C)c1nc2ccccc2n1CC(=O)NC(C)CCc1ccccc1` (stereo unspecified): inactive: -7.15%; `CCOC(=O)c1cccc(NC(=O)Cn2cnc3c2c(=O)n(C)c(=O)n3C)c1`: inactive: -3.95%.
The same measure for `CCc1cccc(C)c1NC(=O)CSc1nc2ccccc2n1CC(=O)N(C)C`: inactive: 9%; for `CCN1C(=O)CC(n2c(C)nc3ccccc32)C1=O` (stereo unspecified): inactive: 15.3%.
Next, `O=S(=O)(c1ccc(Cl)cc1)N1CCn2c1nc1ccccc12`: inactive: 0.53%; `CSCC[C@H](NC(=O)N1CCn2c1nc1ccccc12)C(=O)NCc1ccc2c(c1)OCO2`: inactive: 17.2%.
As for `CC(/C=N/NC(=O)Cn1cnc2ccccc21)=C\c1ccccc1`, the inhibition is inactive: -11.2%.
With `COc1ccc(Cc2nnc(NC(=O)Cn3cnc4c3c(=O)n(C)c(=O)n4C)s2)cc1OC`, the inhibition was inactive: -15.6%.
The same measure for `CCCn1c(=O)c2c(nc3n2CCN3Cc2ccco2)n(C)c1=O`: inactive: 0.07%; for `O=S(=O)(c1ccccc1)c1nnn2c1nc(NC1CCN(Cc3ccccc3)CC1)c1cc(Cl)ccc12`: inactive: 9.63%; for `CCN(CC)c1ccc(NC(=O)Cn2c(C(C)NC(=O)c3ccc(C)cc3)nc3ccccc32)cc1` (stereo unspecified): inactive: 0.92%.
The same measure for `CSCC[C@H](NC(=O)N1CCn2c1nc1ccccc12)C(=O)NC1CC1`: inactive: -6.89%; for `O=C(NC1CCCCC1)C(c1ccccc1)N(Cc1ccco1)C(=O)Cn1cnc2ccccc21` (stereo unspecified): inactive: -14.8%; for `Cc1ccc(C(=O)Cn2c(=N)n(CCN3CCOCC3)c3ccccc32)cc1`: inactive: -4.77%.
The same measure for `CCOc1ccc(CNc2nc3ccccc3n2CCN2CCOCC2)cc1`: inactive: 25.3%.
For the molecule `O=[N+]([O-])c1cc([N+](=O)[O-])c(CCNc2ccccc2)c([N+](=O)[O-])c1`, the inhibition is inactive: -38%.
The same measure for `CCc1nc2c(n1)c1c(non1O)c1c2no[n+]1[O-]`: inactive: 6.71%.
Next, `Cc1csc2ncnc(NC3CCN(Cc4ccccc4)CC3)c12`: inactive: -15.6%; `Cn1c(=O)[nH]c(=O)c2c1nc(CN1CCN(Cc3ccccc3)CC1)n2CC(N)=O`: inactive: 5.26%; `Cc1ccc(OCC(O)Cn2c(=N)n(CCN3CCOCC3)c3ccccc32)cc1` (stereo unspecified): inactive: -17.9%.
Next, `COC(=O)c1ccc(NC(=O)Cn2c(-c3nonc3N)nc3ccccc32)cc1`: inactive: -4.6%.
Take `N=c1n(CCN2CCCCC2)c2ccccc2n1CC(O)COc1ccccc1` (stereo unspecified): the inhibition was inactive: 14.3%.
The same measure for `Cc1ccc(NP(=O)(Oc2ccccc2)Oc2ccccc2)nc1`: inactive: 6.51%; for `O=[N+]([O-])c1ccc(NC2CCN(Cc3ccccc3)CC2)c([N+](=O)[O-])c1`: inactive: -0.72%.
For the molecule `CC1CC(C)CN(C(=O)Cn2c(-c3nonc3N)nc3ccccc32)C1` (stereo unspecified), the inhibition was inactive: 6.47%.
Next, `Cc1nc2ccccc2n1CC(=O)N/N=C/c1cccs1`: inactive: 5.63%; `COC(=O)c1ccccc1NC(=O)Cn1cnc2cc(C)c(C)cc21`: inactive: 19.6%.
Consider `CSCC[C@H](NC(=O)N1CCn2c1nc1ccccc12)C(=O)N[C@H](Cc1ccccc1)C(=O)O`, for which the inhibition is inactive: -43.9%.
Next, `CCOc1ccccc1OCC(=O)NNC(=O)Cn1cnc2c1c(=O)n(C)c(=O)n2C`: inactive: -5.87%; `CC1CCCCC1NC(=O)Cn1cnc2c1c(=O)n(C)c(=O)n2C` (stereo unspecified): inactive: -16.5%.
Next, `Cc1ccccc1Cn1c(=O)c2c(nc3n2CCN3Cc2ccco2)n(C)c1=O`: inactive: -17.8%.
Next, `Nc1nonc1-c1nc2ccccc2n1CC(=O)N1CCCCC1`: inactive: 4.62%; `Cc1ccc(C)c(CN2CCC(n3nnc4cc(F)ccc43)CC2)c1`: inactive: 0.25%; `COC(=O)c1sccc1NC(=O)Cn1cnc2c1c(=O)n(C)c(=O)n2C`: inactive: 14.3%.
`N#CCCNC(=O)Cn1c(COc2ccc(Cl)cc2)nc2ccccc21`: the inhibition was inactive: -10.6%.
Consider `Cn1c(=O)[nH]c(=O)c2c1nc1n2CCN1Cc1ccccc1`, for which the inhibition was inactive: -17.6%.
In the case of `Cn1ncc([N+](=O)[O-])c1C(=O)Nc1nc2ccccc2n1CCN1CCCCC1`, the inhibition was inactive: -9.01%.
Next, `CC(=O)N1C2C3N(C(C)=O)C1C1N(C(C)=O)C(C(N1C(C)=O)N3C(C)=O)N2C(C)=O`: inactive: -7.99%.
In the case of `CC#CCCC(=O)N1C=Cc2ccccc2C1C#N` (stereo unspecified), the inhibition was inactive: -1.77%.
Take `O=[N+]([O-])c1cccc2n[nH]nc12`: the inhibition was inactive: -0.81%.
Next, `N=c1n(CCN2CCCCC2)c2ccccc2n1CC(O)c1ccco1` (stereo unspecified): inactive: -10.7%; `O=C(Cn1c(NCCO)nc2ccccc21)N1CCN(Cc2ccccc2)CC1`: inactive: 7.69%.
For `Cn1c(=O)c2c(ncn2CC(=O)Nc2ccccc2)n(C)c1=O`, the inhibition is inactive: 30.3%.
Next, `Nc1ccccc1CNc1nc(NCCO)nc2c1ncn2CCN1CCOCC1`: inactive: -0.99%.
Next, `NC(=O)CC(NC(=O)c1ccccc1)c1ccc(NC2CCN(Cc3ccccc3)CC2)c([N+](=O)[O-])c1` (stereo unspecified): inactive: -42.1%.
Next, `N#CCC(=O)N/N=C\c1cc(Br)ccc1OC/C=C/c1ccccc1`: inactive: 24.3%; `Cc1ccc2c(c1)C1CN(C)CCC1N2S(=O)(=O)c1ccc(Oc2ccc([N+](=O)[O-])cc2)cc1` (stereo unspecified): inactive: 17.1%; `Cc1ccc(SCc2nc3ccccc3n2CC(=O)Nc2ccccc2)cc1`: inactive: 0.35%.
Turning to `COc1cc(NC(=O)Cn2cnc3c(SC)nc(N)nc32)cc(OC)c1OC`, the inhibition is inactive: 7.74%.
Next, `Cc1cc(NC(=O)CSc2nc3ccccc3n2CC(=O)N2CC(C)CC(C)C2)no1` (stereo unspecified): inactive: 5.79%.
The same measure for `Cn1c(=O)c2c(nc(Cl)n2CC(=O)NC2(C#N)CCCCC2)n(C)c1=O`: inactive: -14.5%.
Next, `CSc1nc(N)nc2c1ncn2CC(=O)NCCCc1ccccc1`: inactive: -12.1%.
On to `c1ccc(CN2CCC3(CC2)Nc2ccccc2CO3)cc1`, for which the inhibition is inactive: -3.38%.
The same measure for `CCOC(=O)CSc1nc2ccccc2n1CC(=O)N1CCN(c2ccccc2)CC1`: inactive: 18.7%.
